Assay [1] has as its target STAT3 (Homo sapiens, UniProt P40763). Nature of the assay: Amount of STAT3 activated in nucleus of Hep G2 cells after stimulation with IL-6 (TransAM STAT3 DNA binding ELISA). To be noted: test compound 3 h, then IL-6 500 ng/mL for 5 min, nuclear extract. As for the experimental part: Effect of test compound on the amount of STAT3 activated in nucleus of Hep G2 cells after stimulation with IL-6
After Hep G2 cells are washed with PBS (−) twice, they are washed once with trypsin/EDTA solution and detached using trypsin/EDTA solution. The cells are centrifuged and suspended in a medium supplemented with antibiotics (MEM medium (10% FBS +antibiotic (100 U/mL penicillin+100 μg/mL streptomycin)). After the number of cells is counted, the cells are seeded on 12-well plates at a density of 1.2×10^5 cells/1 mL per well.
Two days after seeding, the culture medium is replaced with 1 mL of antibiotic-free culture medium (MEM medium (10% FBS)).
(§1) 2) Addition of Test Compound
Two days after medium replacement, a test compound is added so as to obtain concentrations of 0, 1, 10 and 100 nM.
Three hours after addition of the test compound, IL-6 (Code No. KTS102S manufactured by Kamakura Techno Science Inc.) is added at a final concentration 0 or 500 ng/mL.
Five minutes after addition of IL-6, extraction is performed by use of a Nuclear Extraction Kit (Code No. 40410 manufactured by Active Motif Inc.)
3) Extraction of Nuclear Fraction
The supernatant of the cells is removed by suction. The cells are washed with 1 mL of ice-cold phosphatase inhibitor-containing PBS (hereinafter, PBS/phosphatase inhibitor) and the supernatant of the cells is again removed by suction.
The cells are collected with a cell scraper in 0.6 mL of ice-cold PBS/phosphatase inhibitors and divided into ice-cold 1.5 mL microtubes.
After the microtube is centrifuged at 4° C. and a rate of 400×g for 5 minutes, the supernatant is removed.
The cells are resuspended in 0.2 mL of hypotonic buffer by pipetting up and down several times and kept on ice for 15 minutes.
To this suspension, 10 μL of a detergent is added and vortexed for 10 seconds. After centrifugation is performed at 4° C. and a rate of 20,400×g for 30 seconds, the supernatant is removed.
To the resultant cells, 50 μL of Complete Lysis Buffer is added. The suspension is pipetted, vortexed for 10 seconds and shaken on ice for 30 minutes.
After vortexed for 30 seconds, the suspension is centrifuged at 4° C. and a rate of 20,400×g for 10 minutes.
The supernatant is divided into ice-cold 1.5 mL microtubes and stored at −80° C.
4) DNA Binding is Measured by use of TransAM STAT3 Kit (Code No. 45196 Manufactured by Active Motif Inc.)
To each of the wells of an ELISA plate, 30 μL of Complete Binding Buffer and 20 μL of a sample (extracted from a nucleus) are added.
A positive control: 10 μl of Hep G2 nuclear extract (2.5 mg/mL) is diluted with 40 μL of Complete Lysis Buffer (10 μg/20 μL). Dilutions were prepared at 5, 2.5, 1.25, 0.625 and 0.313 μg/20 μL by sequential half-fold dilution, and 20 μL of dilutions is added to each well.
Blank well: 20 μL of Complete Lysis Buffer is added.
After the plate is sealed, the plate is gently shaken at room temperature for one hour, followed by washing with 200 μL of washing buffer three times.
100 μL of a STAT3 antibody is added and the plate is sealed. Thereafter, the plate is gently shaken at room temperature. One hour later, the plate is washed with 200 μL of washing buffer three times. After washing, 100 μL of an HRP-conjugated antibody is added. The plate is sealed, gently shaken at room temperature for one hour, followed by washing with 200 μL of washing buffer four times.
After that, 100 μL of developing solution returned to room temperature is added, and the plate is incubated for 2 to 10 minutes protected from light. After color development is confirmed, 100 μL of stop solution is added and absorbance at 450 nm and 630 nm is determined within 5 minutes.

By UniProt entry, the sequences of proteins in these tests, tags left out.
UniProt P40763, whole entry: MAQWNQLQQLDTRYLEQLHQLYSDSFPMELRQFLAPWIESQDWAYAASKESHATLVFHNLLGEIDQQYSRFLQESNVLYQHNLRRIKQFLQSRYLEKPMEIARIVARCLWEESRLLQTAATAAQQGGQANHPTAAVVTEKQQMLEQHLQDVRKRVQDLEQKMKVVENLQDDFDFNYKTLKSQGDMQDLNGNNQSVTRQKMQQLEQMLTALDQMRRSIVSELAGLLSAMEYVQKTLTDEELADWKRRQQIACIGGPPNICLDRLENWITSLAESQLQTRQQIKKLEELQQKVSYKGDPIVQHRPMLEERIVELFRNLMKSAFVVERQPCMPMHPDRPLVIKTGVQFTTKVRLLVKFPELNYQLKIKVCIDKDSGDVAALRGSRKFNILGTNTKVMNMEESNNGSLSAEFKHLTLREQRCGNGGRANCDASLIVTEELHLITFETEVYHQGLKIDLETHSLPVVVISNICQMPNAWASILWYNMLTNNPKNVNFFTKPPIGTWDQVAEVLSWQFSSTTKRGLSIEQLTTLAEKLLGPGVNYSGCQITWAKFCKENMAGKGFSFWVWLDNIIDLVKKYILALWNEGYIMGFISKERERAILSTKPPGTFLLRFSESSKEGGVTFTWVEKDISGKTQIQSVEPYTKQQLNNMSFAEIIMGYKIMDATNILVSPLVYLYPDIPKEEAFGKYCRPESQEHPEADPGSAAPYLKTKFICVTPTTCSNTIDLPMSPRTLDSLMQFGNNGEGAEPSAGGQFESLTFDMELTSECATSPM
UniProt P51692, whole entry: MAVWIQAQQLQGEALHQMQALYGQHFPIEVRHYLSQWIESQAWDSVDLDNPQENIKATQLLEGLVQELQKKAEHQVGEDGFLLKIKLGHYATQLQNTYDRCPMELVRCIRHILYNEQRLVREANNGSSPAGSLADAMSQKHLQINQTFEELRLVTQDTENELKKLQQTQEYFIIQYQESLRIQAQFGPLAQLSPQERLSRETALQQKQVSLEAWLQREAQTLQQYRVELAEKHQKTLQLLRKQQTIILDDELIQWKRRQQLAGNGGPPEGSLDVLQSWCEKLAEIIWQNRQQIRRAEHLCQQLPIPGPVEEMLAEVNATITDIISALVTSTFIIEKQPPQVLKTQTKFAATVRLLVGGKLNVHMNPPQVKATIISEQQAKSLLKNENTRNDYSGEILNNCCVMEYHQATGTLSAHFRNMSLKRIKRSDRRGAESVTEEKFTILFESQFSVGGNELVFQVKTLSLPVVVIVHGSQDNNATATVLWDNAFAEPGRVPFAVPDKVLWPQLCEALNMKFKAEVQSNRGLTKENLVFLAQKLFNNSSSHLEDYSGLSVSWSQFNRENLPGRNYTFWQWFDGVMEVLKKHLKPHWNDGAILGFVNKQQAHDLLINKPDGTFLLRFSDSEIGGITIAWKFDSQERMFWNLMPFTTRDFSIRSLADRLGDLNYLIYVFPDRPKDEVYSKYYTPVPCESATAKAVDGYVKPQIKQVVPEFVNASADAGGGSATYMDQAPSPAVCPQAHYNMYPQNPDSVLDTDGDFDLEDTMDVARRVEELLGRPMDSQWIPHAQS

In assay [2] the target is STAT5 (Homo sapiens, UniProt P51692). Nature of the assay: Prolactin-induced STAT5 activation in 22Rv1 cells (TransAM STAT family kit, STAT5B antibody). To be noted: 1000 nM test compound, 3 h, then prolactin 250 ng/mL for 15 min, cytoplasmic fraction. As for the experimental part: Effect of test compound on prolactin-induced STAT5 activation in 22Rv1 cells
After 22Rv1 cells cryopreserved are subcultured at least twice, they are subjected to a test. After culture until subconfluency, the cells are washed with D-PBS (−). Thereafter, they are detached using trypsin/EDTA solution and suspended in a medium (RPMI-1640 medium (10% FBS+antibiotics (100 U/mL penicillin+100 μg/mL streptomycin)). The cell suspension solution is centrifuged at 150×g, for 5 minutes at 20 to 25° C. The supernatant is removed and the pellet is resuspended in the medium. An aliquot of the cell suspension solution is taken and dead cells are stained with trypan blue. The number of viable cells is counted by a hemocytometer. A cell suspension solution is prepared so as to contain 2×10^5 cells/mL, and cells are seeded in a 12 well-plate in a rate of 2×10^5 cells/mL per well. Cells are cultured in a CO2 incubator (5% CO2, 37° C.)
as §1
Two days after seeding, a test compound is added so as to obtain concentrations of 0 and 1000 nM.
Three hours after addition of the test compound, recombinant human prolactin (rhPRL, R&D systems Inc.) is added so as to obtain a concentration of 0 or 250 ng/mL.
3) Extraction of Cytoplasmic Fraction
Fifteen minutes after addition of prolactin, extraction is performed by a Nuclear Extract Kit (Code No. 40410 manufactured by Active Motif Inc.). At 15 minutes after the addition of prolactin, the supernatant is removed and prolactin-stimlation is immediately stopped by adding 1 ml of ice-cold PBS/phosphatase inhibitor. After aspirating 1 mL of ice-cold PBS/phosphatase inhibitor, 0.6 mL of ice-cold PBS/phosphatase inhibitor is added and centrifuged at 200×g, for 5 minutes at 4° C.
After the supernatant is removed, 0.2 mL of hypotonic buffer is added and suspended. After the suspension is kept on ice for 15 minutes, 10 μL of a detergent is added. After the solution is further stirred, it is centrifuged at 14,000×g, for one minute at 4° C. The resultant supernatant (cytoplasmic fraction) is divided to three ice-cold 96-well plates, and stored in a freezer of −80° C.
4) Measurement of Activated STATS
Measurement is performed by use of reagents attached to TransAM™STAT family kit. To describe more specifically, to each of the wells of an ELISA plate of the TransAM™STAT family kit, 30 μL of Complete Binding Buffer is added, and thereafter, 20 μL of the cytoplasmic fraction is added. As a sample for calibration curve, 12 μL of a cell nuclear fraction reference sample (Nb2 nuclear fraction (prolactin stimulated, 2.5 μg/μL)) attached to the TransAM™STAT family kit is diluted with 48 μL of Complete Lysis Buffer (to 10 μg/20 μL), and further serially diluted in half to prepare diluted solutions of 5, 2.5, 1.25, 0.625, 0.313, and 0.156 μg/20 μL. 20 μl of each of the dilution solution is added to well. As a blank, 20 μL of Complete Lysis Buffer is added. After addition of a sample, the plate is sealed and gently shaken at room temperature for one hour. After that, the plate is washed with 200 μL of wash buffer three times. Next, 100 μL of STAT5B antibody is added, sealed and incubated at room temperature without agitation. One hour later, the plate is washed with 200 μL of wash buffer three times. 100 μL of a Horseradish Peroxidase (HRP)-conjugated antibody is added, sealed and incubated at room temperature without agitation. One hour later, the plate is washed with 200 μL of wash buffer four times and 100 μL of a developing solution is added. The plate is incubated for 2 to 10 minutes protected from light. After color development is confirmed, 100 μL of a stop solution is added. Immediately after, absorbance at 450 nm (measurement wavelength) and 630 nm (reference wavelength) is determined using a plate reader.
The amount of phosphorylated STAT5B dimer is estimated based on a calibration curve. […]

Where only a bound is given, the exact number is not on record here.

Turning to `Cc1cc(NC(=O)C(=O)N2CCN(Cc3ccc4c(c3)OCO4)CC2)ccc1Oc1ccc(N(C)Cc2ccc(C(F)(F)F)cc2)cn1`, the IC50 in assay [1] was < 150 nM. Besides, the “T/C % (amount of phosphorylated STAT5B dimer relative to absence of drug)” value in assay [2] is reported as <30%.
`CN(CC(=O)N1CCN(Cc2ccc3c(c2)OCO3)CC1)c1ccc(Oc2ccc(NC(=O)c3ccc(C(F)(F)F)cc3)cc2)cc1`: in assay [1], the IC50 is < 150 nM. Further, the “T/C % (amount of phosphorylated STAT5B dimer relative to absence of drug)” value in assay [2] is listed as <30%.
As to `CN(CC(=O)N1CCN(Cc2ccc3c(c2)OCO3)CC1)c1ccc(Oc2ccc(C(=O)Nc3ccc(C(F)(F)F)cc3)cn2)cc1C(F)(F)F`, in assay [1], the IC50 was < 150 nM. The “T/C % (amount of phosphorylated STAT5B dimer relative to absence of drug)” value in assay [2] is on record as <30%.
On the same counts, the results for `Cc1cc(N(C)CC(=O)N2CCN(Cc3ccc4c(c3)OCO4)CC2)ccc1Oc1ccc(NC(=O)c2ccc(C(F)(F)F)cc2)cn1` are < 150 nM and <30%.
On the same counts, the results for `CN(c1ccc(N2CCN(CC(=O)N3CCN(Cc4ccc5c(c4)OCO5)CC3)CC2)cc1)c1ccc(NC(=O)c2ccc(C(F)(F)F)cc2)cn1` are < 150 nM and <30%.
Consider `O=C(Nc1ccc(Oc2ccc(CCC(=O)N3CCN(Cc4ccc5c(c4)OCO5)CC3)cc2)nc1)c1ccc(C(F)(F)F)cc1`, for which the IC50 in assay [1] was < 150 nM. For the same compound, in assay [2], the “T/C % (amount of phosphorylated STAT5B dimer relative to absence of drug)” value is recorded as <30%.
Turning to `Cc1cc(N2CCC(CC(=O)N3CCN(Cc4ccc5c(c4)OCO5)CC3)CC2)ccc1Oc1ccc(NC(=O)c2ccc(C(F)(F)F)cc2)cn1`, the IC50 in assay [1] is < 150 nM. Further, the “T/C % (amount of phosphorylated STAT5B dimer relative to absence of drug)” value in assay [2] is <30%.
On the same counts, the results for `CN(c1ccc(CCC(=O)N2CCN(Cc3ccc4c(c3)OCO4)CC2)cc1)c1ccc(NC(=O)c2ccc(C(F)(F)F)cc2)cn1` are < 150 nM and <30%.
